Measured values from US20080262321A1, “Early Detection of Harmful Agents: Method, System and Kit” (published 2008).

System: E. coli-REC-A bacteria
Assay: Prototype sensing device with E. coli-REC-A biosensors, detected optical signal over time
Details: 1.5×10^6 or 1.5×10^5 bacteria per reaction chamber, 5 hours, FIGS. 27a-d

`CCn1cc(C(=O)O)c(=O)c2ccc(C)nc21` was tested. Which “biochemical reaction (detected optical signal of biosensors)” value (5 ppm NA) did it give?
Its value is “significant biochemical reaction”.

And the “biochemical reaction (detected optical signal of biosensors)” value (10 ppm NA)?
The value was “significant biochemical reaction”.
